Earlier results on one compound are cited in patent US20070116643A1, “Novel aryloxypropanamines” (Concert Pharmaceuticals Inc., priority 2005, published 2007).

The test system of series [1] is immobility in forced swim test. The settings on record: forced swim test animal model.
The conditions of series [2]: in humans.

Where a name gives a salt, the structure may show the parent alone.

For `CNCC[C@H](Oc1cccc2ccccc12)c1cccs1` [Compound A, (S)-N-methyl-3-(naphthalen-1-yloxy)-3-(thiophen-2-yl)propan-1-amine hydrochloride], the attenuation of immobility result in series [1] was “potent attenuation of immobility”. Also, the antidepressant activity entry in series [2] is recorded as “potent antidepressant activity”.
